Assay: Stability study by HPLC-MS under ambient conditions
Format: physicochemical
Settings: room temperature, air, water solution, neutral pH
From the text: High performance liquid chromatography-mass spectroscopy (HPLC-MS) was used to monitor the degradation of four synthetic compounds over a period of time.

Substance: hPTH (1-84) [PTH(1-84), reference compound]
- degradation after 7 days (estimated based on UV signal): greater than 90%

Reference: patent US20140228293A1, “PARATHYROID HORMONE ANALOGS, COMPOSITIONS AND USES THEREOF” (THE GENERAL HOSPITAL CORPORATION, priority 2011, published 2014)
